# Laboratory results reported in US8962608B2, “Cycloalkylnitrile pyrazole carboxamides as janus kinase inhibitors” (Merck Sharp & Dohme Corp., priority 2011, dated 2015).
# Protein sequences, listed by entry. Tags and fused reporters are not part of them. Residues count along the entry.
# UniProt O60674, 849-1124: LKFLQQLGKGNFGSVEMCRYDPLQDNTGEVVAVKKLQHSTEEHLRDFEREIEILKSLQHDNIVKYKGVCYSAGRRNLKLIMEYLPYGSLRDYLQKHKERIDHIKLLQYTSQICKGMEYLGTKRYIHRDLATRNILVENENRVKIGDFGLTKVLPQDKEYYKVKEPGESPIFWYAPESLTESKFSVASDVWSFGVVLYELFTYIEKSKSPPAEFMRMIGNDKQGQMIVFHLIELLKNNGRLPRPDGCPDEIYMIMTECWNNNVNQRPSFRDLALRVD
# Target: JAK2 (recombinant purified GST-tagged catalytic domain) (Homo sapiens (Human), UniProt O60674)
# Experiment: biochemical
# 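Note: biochemical JAK kinase assay with HTRF detection.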
row,SMILES,pIC50
1,"N#C[C@@H]1CCCC[C@H]1n1cc(C(N)=O)c(Nc2ccc(F)nc2)n1 (single isomer, unassigned) [Example 17-23, 1-[(1R,2R or 1S,2S)-2-cyanocyclohexyl]-3-[(6-fluoropyridin-3-yl)amino]-1H-pyrazole-4-carboxamide]",7.26
2,"CC(C)(O)C1CC(CN[C@H]2CC[C@@H](n3cc(C(N)=O)c(Nc4ccc(C(F)(F)F)cc4)n3)[C@H](C#N)C2)C1 (single isomer, unassigned) [Example 30-4, 1-[(1R,2R,4S or 1S,2S,4R)-2-cyano-4-({[3-(1-hydroxy-1-methylethyl)cyclo-butyl]methyl}amino)cyclo-hexyl]-3-{[4-(trifluoro-methyl)phenyl]amino}-1H-pyrazole-4-carboxamide]",6.58
3,"CN(C)[C@H]1CC[C@H](n2cc(C(N)=O)c(Nc3ccc(F)cc3)n2)[C@@H](C#N)C1 (single isomer, unassigned) [Example 28-102, 1-[(1S,2S,4S or 1R,2R,4R)-2-cyano-4-(dimethylamino)cyclohexyl]-3-[(4-fluorophenyl)amino]-1H-pyrazole-4-carboxamide]",7.57
4,"N#C[C@H]1C[C@@H](NCC(F)(F)F)CC[C@@H]1n1cc(C(N)=O)c(Nc2ccnc(F)c2)n1 (single isomer, unassigned) [Example 28-111, 1-{(1S,2S,4S or 1R,2R,4R)-2-cyano-4-[(2,2,2-trifluoroethyl)amino]cyclohexyl}-3-[(2-fluoropyridin-4-yl)amino]-1H-pyrazole-4-carboxamide]",7.80
5,"CC(C)CN(CC1CC1)[C@H]1CC[C@@H](n2cc(C(N)=O)c(Nc3ccc(C(F)(F)F)cc3)n2)[C@H](C#N)C1 (single isomer, unassigned) [Example 30-9, l-{(1R,2R,4S or 1S,2S,4R)-2-cyano-4-[(cyclopropylmethyl)(2-methylpropyl)amino]cyclo-hexyl}-3-{[4-(trifluoromethyl)phenyl]amino}-1H-pyrazole-4-carboxamide]",6.04
6,"C[C@]1(O)CC[C@H](n2cc(C(N)=O)c(Nc3ccc(Cl)cc3)n2)[C@@H](C#N)C1 (single isomer, unassigned) [Example 32-10, 3-[(4-chlorophenyl)amino]-1-[(1S,2S,4S or 1R,2R,4R)-2-cyano-4-hydroxy-4-methylcyclohexyl]-1H-pyrazole-4-carboxamide]",8.05
7,"N#Cc1ccc(Nc2nn([C@H]3CC[C@H](NCC(F)F)C[C@@H]3C#N)cc2C(N)=O)cc1 (single isomer, unassigned) [Example 28-116, 1-{(1S,2S,4S or 1R,2R,4R)-2-cyano-4-[(2,2-difluoroethyl)amino]cyclohexyl}-3-[(4-cyanophenyl)amino]-1H-pyrazole-4-carboxamide]",8.05
8,"CC(C)(C)OC(=O)[C@H]1CCC(n2cc(C(N)=O)c(Nc3ccc(F)cc3)n2)[C@@H](C#N)C1 (mixture of isomers) [Example 7-1, tert-Butyl (1S,3S,4S and 1R,3R,4R)-4-{4-carbamoyl-3-[(4-fluorophenyl)amino]-1H-pyrazol-1-yl}-3-cyanocyclohexanecarboxylate]",6.33
9,"N#C[C@H]1C[C@H](NCC(F)(F)F)CC[C@@H]1n1cc(C(N)=O)c(Nc2ccc(Cl)cc2)n1 (single isomer, unassigned) [Example 28-225, 3-[(4-chlorophenyl)amino]-1-{(1S,2S,4R or 1R,2R,4S)-2-cyano-4-[(2,2,2-trifluoroethyl)amino]cyclohexyl}-1H-pyrazole-4-carboxamide]",7.29
10,"N#C[C@H]1C[C@H](N2CC3(CCC3)C2)CC[C@@H]1n1cc(C(N)=O)c(Nc2ccc(C(F)(F)F)cc2)n1 (single isomer, unassigned) [Example 28-24, 1-[(1S,2S,4R or 1R,2R,4S)-4-(2-azaspiro[3.3]hept-2-yl)-2-cyanocyclohexyl]-3-{[4-(trifluoromethyl)phenyl]amino}-1H-pyrazole-4-carboxamide]",6.62

# pIC50: −log10 of the molar value.
